Ki data for 2 compounds are collected here from patent US8835440B2, “Cyclic pyrimidin-4-carboxamides as CCR2 receptor antagonists for treatment of inflammation, asthma and COPD” (Boehringer Ingelheim International GmbH, priority 2008, dated 2014).

By UniProt entry, the sequences of proteins in these tests, tags left out. Residues count along the entry.
UniProt P41597, 1-360 isoform 2: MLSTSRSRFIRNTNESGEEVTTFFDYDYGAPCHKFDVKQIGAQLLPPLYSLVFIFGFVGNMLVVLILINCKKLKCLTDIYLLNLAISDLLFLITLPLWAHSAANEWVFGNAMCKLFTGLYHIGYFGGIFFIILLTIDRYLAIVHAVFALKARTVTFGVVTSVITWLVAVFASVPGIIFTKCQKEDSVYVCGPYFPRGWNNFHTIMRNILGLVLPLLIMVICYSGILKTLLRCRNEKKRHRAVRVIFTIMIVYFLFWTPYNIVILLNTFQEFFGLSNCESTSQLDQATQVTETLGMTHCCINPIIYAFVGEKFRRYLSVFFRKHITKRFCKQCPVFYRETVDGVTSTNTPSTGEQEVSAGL

In this experiment the target is CCR2 (Homo sapiens, UniProt P41597). In words: CCR2 receptor membrane binding assay ([125I]MCP-1, THP-1 cell membranes, SPA beads). The conditions noted are these: read-out: hKi; dissociation constant hKi; [125I]MCP-1 binding to THP-1 membranes.

As for `Cc1c(NCC2CCCC(c3ccccc3)C2)ncnc1C(=O)N1CCC(N2CCC(NS(C)(=O)=O)CC2)CC1` (centres unmarked), the Ki stood at 9 nM.
Then `COCCn1ncc2c1CN(C1CCN(C(=O)c3ncnc(NCc4ccc(C(C)(C)C)cc4)c3C)CC1)CC2`, with 3830 nM.
